## Yeast mating assay 1: variants of the scFv Ab-14

Source: Engelhart et al. 2022 (doi:10.1038/s41597-022-01779-4), MIT Lincoln Laboratory and A-Alpha Bio; data file from the FLAb repository.

All variants were tested on one target, the spike HR2 peptide PDVDLGDISGINAS (SARS-CoV-2).

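Phage display of a naive human antibody library on the peptide gave the parent. Library AAYL50 holds single substitutions and randomly drawn double and triple substitutions in the CDRs. The assay is AlphaSeq: two haploid yeast populations carry antibody and antigen on their surface. The frequency of each diploid, read from paired DNA barcodes, reflects how well the two displayed proteins bind. A regression on co-assayed BCL2-family reference pairs converts the normalised counts of each replicate to an apparent Kd. Mating was done three times.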

Ab-14 is the parent antibody, in scFv form: VH, then three GGGGS repeats, then VL. The heavy chain is unchanged in all variants.
VH: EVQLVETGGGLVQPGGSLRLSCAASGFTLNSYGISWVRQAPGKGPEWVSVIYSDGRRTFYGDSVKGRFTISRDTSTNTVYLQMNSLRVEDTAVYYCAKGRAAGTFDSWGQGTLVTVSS
VL: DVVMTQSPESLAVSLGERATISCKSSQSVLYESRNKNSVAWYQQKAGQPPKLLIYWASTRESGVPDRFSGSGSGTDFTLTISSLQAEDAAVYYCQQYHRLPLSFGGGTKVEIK

Sequences are complete VL domains. This list gathers variants with a substitution at H98 (VL, numbered from residue 1). Values are apparent Kd, the geometric mean of the replicates that gave a signal; lower means stronger binding. "not detected" means that the variant was in the library but no mating with the target was seen in any replicate; the authors take this as a sign of poor binding, and no number exists. The list is sorted by this average, lowest first, undetected variants last. In this assay the parent's reference entry averaged 4.4 nM; its copy inside this library read 48 nM.

| VL | apparent Kd | replicates with signal |
|---|---|---|
| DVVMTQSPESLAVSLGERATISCKSSQSVLYESRNLNSVAWYQQKAGQPPKLLIYWASTRESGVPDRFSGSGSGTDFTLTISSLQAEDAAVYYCQQYCRLPLTFGGGTKVEIK | 2.0 nM | 3 of 3 |
| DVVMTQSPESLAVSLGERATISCKSSQSELYESRNKNSVAWYQQKAGQPPKLLIYWASTRQSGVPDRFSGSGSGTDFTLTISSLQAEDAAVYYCQQYSRLPLSFGGGTKVEIK | 2.5 nM | 3 of 3 |
| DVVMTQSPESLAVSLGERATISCKSSQSVLYESRIKNSVAWYQQKAGQPPKLLIYWASTRESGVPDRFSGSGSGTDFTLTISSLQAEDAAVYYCLQYYRLPLSFGGGTKVEIK | 5.8 nM | 3 of 3 |
| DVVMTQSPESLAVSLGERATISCRSSQSVLYESRNKNSVAWYQQKAGQPPKLLIYWASTRESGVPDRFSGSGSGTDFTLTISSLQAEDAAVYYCQYYQRLPLSFGGGTKVEIK | 22 nM | 3 of 3 |
| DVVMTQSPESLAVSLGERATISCKSIQSVLYESRNKNSVAWYQQKAGQPPKLLIYWASTREEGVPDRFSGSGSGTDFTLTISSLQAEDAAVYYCQQYRRLPLSFGGGTKVEIK | 44 nM | 3 of 3 |
| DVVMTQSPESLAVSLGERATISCKSTQSVLYESRNKNQVAWYQQKAGQPPKLLIYWASTRESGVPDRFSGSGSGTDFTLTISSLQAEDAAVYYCQQYTRLPLSFGGGTKVEIK | 58 nM | 3 of 3 |
| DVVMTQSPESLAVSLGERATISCKSSNSVLYESRNKNSVAWYQQKAGQPPKLLIYWASTRESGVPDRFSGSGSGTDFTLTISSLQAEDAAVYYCQQHDRLPLSFGGGTKVEIK | 12 µM | 3 of 3 |
| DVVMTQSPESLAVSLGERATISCKSSQSVLYESRNKNSVAWYQQKAGQPPKLLIYWASTREFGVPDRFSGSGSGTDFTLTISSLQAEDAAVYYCQQYYRLPLSFGGGTKVEIK | 30 µM | 1 of 3 |
| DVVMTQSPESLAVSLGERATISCTSSQSVLYESRNKNSVAWYQQKAGQPPKLLIYWASTRESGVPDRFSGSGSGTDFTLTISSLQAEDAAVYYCQQYPRLPLSFGGGTKVEIK | 250 µM | 1 of 3 |
| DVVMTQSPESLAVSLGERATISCKSSQSVLYESRWKNSVAWYQQKAGQPPKLLIYWASTRESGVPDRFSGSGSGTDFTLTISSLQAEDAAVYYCQQTKRLPLSFGGGTKVEIK | not detected | 0 of 3 |
| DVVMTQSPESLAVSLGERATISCKESQSVLYESRNKNSVGWYQQKAGQPPKLLIYWASTRESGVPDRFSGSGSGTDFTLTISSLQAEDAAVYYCQQYLRLPLSFGGGTKVEIK | not detected | 0 of 3 |
| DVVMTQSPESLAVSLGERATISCKSSQSVLYESRNKNSVAWYQQKAGQPPKLLIYWVQTRESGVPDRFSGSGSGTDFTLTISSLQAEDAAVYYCQQYDRLPLSFGGGTKVEIK | not detected | 0 of 3 |
| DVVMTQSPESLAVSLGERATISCKSSQSVWPESRNKNSVAWYQQKAGQPPKLLIYWASTRESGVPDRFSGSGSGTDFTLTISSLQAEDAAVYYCQQYARLPLSFGGGTKVEIK | not detected | 0 of 3 |
| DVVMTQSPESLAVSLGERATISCKSSQSILYESRNKNSVAWYQQKAGQPPKLLIYWASTRESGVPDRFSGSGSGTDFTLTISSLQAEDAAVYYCQPYSRLPLSFGGGTKVEIK | not detected | 0 of 3 |

Background: pairings of library AAYL50 with three empty control strains gave a value in 18% of cases (median 15 µM, 5th percentile 970 nM). Values in that range, when seen in few replicates, are hard to tell from nonspecific mating.